Experimental data taken from PubChem BioAssay AID540364 (The Scripps Research Institute Molecular Screening Center, 2011).
The entries are a selection whose mix differs from that of the whole data set. Activity calls are given as the source filed them.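 How the source made its calls: active means activation above the average of all compounds screened plus 3 SD, cutoff fixed separately per campaign (cut at about 7.5% in these data); inactive means the rest.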

Assay: FXN promoter activators, primary screen, cell-based, luciferase luminescence, HEK293 lucGAA850 (AID 540364);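 further: 0% = DMSO wells and 100% = 10 µM SAHA wells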
Conditions: HEK293 lucGAA850 FXN promoter luciferase reporter, 24 h; at 6 µM; active compounds read high; percent of 10 µM SAHA response

SMILES	activation
CCC(=O)N(c1ccccc1)C1(COC)CCN(CCc2cccs2)CC1	inactive: -7.19%
CCC(=O)N(c1ccccc1)C1(COC)CCN(CCn2nnn(CC)c2=O)CC1	inactive: -1.3%
